Values quoted from earlier work in PMC9816206 (Archives of Toxicology, 2022).

Test system: HSEC
Conditions: PAs metabolized by HepaRG human hepatocyte cells in Transwell co-culture; ref Lu et al. [2019]; cited from earlier work

Substance: retrorsine
- cytotoxicity in HSEC: concentration-dependent cytotoxicity
